US7759385B2, “4-substituted 1-aminocyclohexane compounds for utilization as ORL1-receptor and mu-opiate receptor ligands” (priority 2002, dated 2010)

Chains of the proteins cited; added tags and fusions are not shown.
UniProt P35372, whole entry: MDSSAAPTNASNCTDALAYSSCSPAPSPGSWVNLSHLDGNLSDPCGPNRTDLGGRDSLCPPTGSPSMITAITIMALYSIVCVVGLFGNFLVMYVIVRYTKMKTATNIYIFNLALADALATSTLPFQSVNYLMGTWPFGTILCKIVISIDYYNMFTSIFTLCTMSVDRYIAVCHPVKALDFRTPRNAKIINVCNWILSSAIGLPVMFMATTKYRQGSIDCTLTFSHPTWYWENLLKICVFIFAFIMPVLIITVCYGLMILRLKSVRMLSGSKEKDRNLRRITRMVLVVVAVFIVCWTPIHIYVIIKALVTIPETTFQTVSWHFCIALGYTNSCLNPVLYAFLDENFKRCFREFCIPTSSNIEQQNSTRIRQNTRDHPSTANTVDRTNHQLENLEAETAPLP
UniProt P41146, whole entry: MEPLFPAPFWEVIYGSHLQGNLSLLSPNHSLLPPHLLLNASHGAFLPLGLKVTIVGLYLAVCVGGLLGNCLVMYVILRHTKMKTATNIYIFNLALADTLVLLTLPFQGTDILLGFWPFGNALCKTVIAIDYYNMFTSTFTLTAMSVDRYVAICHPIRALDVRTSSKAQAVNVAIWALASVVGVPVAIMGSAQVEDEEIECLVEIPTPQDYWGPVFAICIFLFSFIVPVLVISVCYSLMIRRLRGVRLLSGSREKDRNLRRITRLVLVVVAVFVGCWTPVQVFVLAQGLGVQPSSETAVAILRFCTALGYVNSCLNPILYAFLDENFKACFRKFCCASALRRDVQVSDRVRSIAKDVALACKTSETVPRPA

Key:
human μ opiate receptor = human μ opiate receptor (Homo sapiens, UniProt P35372); assay: μ opiate receptor binding assay, membrane preparation of CHO-K1 cells, [3H]-naloxone (or DAMGO) displacement; conditions: read-out: μ Ki; radioligand [3H]-naloxone 1 nmole/l; Cheng-Prusoff
ORL1 receptor = ORL1 receptor (Homo sapiens, UniProt P41146); assay: ORL1 receptor binding assay with 3H-nociceptin/orphanin FQ, membranes of recombinant CHO-ORL1 cells; conditions: read-out: ORL1 Ki, 3H-nociceptin/orphanin FQ 0.5 nM

`CN(C)C1(c2ccccc2)CCC(=CC(=O)N2CCC(c3c[nH]c4ccccc34)C2)CC1` (centres unmarked) was tested, and the Ki (human μ opiate receptor) was 0.8 nM and the Ki (ORL1 receptor) was 20 nM.
